For 2 compounds, Ki results are on record in patent US9284299B2, “Substituted 1H-indazol-1-ol analogs as inhibitors of beta catenin/Tcf protein-protein interactions” (UNIVERSITY OF UTAH RESEARCH FOUNDATION, priority 2012, dated 2016).

Sequences of proteins named here, by UniProt entry; tags and fusion partners are left off. Residues count along the entry.
UniProt P35222, 138-686: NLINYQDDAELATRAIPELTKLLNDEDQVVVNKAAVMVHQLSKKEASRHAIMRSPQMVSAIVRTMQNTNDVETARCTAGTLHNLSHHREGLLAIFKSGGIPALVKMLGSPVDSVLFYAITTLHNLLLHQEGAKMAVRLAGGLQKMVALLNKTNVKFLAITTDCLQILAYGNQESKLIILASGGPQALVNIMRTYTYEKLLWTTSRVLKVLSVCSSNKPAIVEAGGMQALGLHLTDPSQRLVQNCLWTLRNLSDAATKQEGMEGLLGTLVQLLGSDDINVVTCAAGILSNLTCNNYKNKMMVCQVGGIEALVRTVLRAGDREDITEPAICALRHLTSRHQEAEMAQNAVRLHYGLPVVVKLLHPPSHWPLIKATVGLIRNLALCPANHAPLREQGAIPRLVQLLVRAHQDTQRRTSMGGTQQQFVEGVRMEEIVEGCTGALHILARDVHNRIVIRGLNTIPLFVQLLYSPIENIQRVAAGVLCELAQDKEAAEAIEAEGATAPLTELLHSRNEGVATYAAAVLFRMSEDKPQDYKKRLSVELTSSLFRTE

This experiment deals with β-catenin/Tcf4 interaction (Homo sapiens (Human), UniProt P35222). The experiment is described as follows: Fluorescence polarization (FP) competitive inhibition assay, β-catenin/Tcf4. It counts as binding. The conditions noted are these: Table 2; mean ± standard deviation (n=3). Here is the method:
Experiments were performed in 96-well Microfluor 2 black plates (Waltham, Mass.), and the samples were read by a Synergy 2 plate reader (Biotek, Winooski, Vt.). […] The final reaction volume is 100 μL.
In the foregoing equation, mP, is the signal of the positive control; mPbound is the signal of the negative control; and mP is the signal of the tested inhibitor compound.
Background: Fluorescence polarisation rises when a labelled molecule tumbles more slowly, as on binding a larger partner.

In general, Ki refers to a measure of affinity in units of concentration, obtained from inhibition or displacement. Consider `O=C(c1cccnc1)N(Cc1nn[nH]n1)c1ccc2c(cnn2O)c1` [Compound 21, N-((2H-TETRAZOL-5-YL)METHYL)-N-(1-HYDROXY-1H-INDAZOL-5-YL)NICOTINAMIDE], for which the inhibition constant Ki worked out at 180 ± 2.91 µM.

Take `c1cc2[nH]ncc2cc1CCc1nn[nH]n1` [Compound 16, 5-(2-(2H-TETRAZOL-5-YL)ETHYL)-1H-INDAZOLE]: the Ki worked out at 180 ± 2.91 µM.
